Here are results for six compounds from US6936585B2, “Corticotropin releasing factor 2 receptor agonists” (priority 2002, dated 2005).

One assay concerns the target T1, CRF2R (Homo sapiens, UniProt Q13324).
T1 sequence (Q13324 1-411): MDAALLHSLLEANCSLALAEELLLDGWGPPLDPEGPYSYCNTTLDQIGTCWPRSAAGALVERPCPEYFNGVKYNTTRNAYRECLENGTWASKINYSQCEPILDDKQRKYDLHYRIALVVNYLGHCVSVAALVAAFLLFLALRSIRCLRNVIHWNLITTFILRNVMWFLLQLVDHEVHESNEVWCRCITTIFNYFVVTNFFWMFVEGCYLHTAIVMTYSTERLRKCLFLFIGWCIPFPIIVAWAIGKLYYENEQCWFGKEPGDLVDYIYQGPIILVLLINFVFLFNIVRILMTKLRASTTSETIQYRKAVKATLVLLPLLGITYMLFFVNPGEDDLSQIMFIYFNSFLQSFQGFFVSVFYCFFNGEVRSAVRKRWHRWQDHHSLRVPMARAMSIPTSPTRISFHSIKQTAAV
Nature of the assay: CRF2R agonist activation (EC50 / Emax), called comparative CRF binding. As to conditions: for Emax: read-out: CRF2R Emax. The assay is classed as cell-based. An outline of the steps:
(§1)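 Agonism is scored from cAMP rise, assayed in lysates or through CRE-driven reporter expression, after peptide contact with cells bearing human CRF2R or CRF1R, compared against vehicle-treated cells.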

A further assay deals with T2, CRF1R (Homo sapiens, UniProt P34998).
T2 sequence (P34998 24-415): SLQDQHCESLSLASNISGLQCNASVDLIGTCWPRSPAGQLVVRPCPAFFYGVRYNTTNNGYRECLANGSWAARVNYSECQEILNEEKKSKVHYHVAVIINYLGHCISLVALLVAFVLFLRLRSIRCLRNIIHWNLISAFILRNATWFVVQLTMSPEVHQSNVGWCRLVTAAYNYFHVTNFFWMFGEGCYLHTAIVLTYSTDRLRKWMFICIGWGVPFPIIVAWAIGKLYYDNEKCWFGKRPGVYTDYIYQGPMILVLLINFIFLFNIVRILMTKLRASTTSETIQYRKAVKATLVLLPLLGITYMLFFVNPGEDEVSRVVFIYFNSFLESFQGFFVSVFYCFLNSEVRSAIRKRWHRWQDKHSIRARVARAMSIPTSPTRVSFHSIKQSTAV
Kind of assay: CRF1R agonist activation (EC50 / Emax), called comparative CRF binding. The assay is classed as cell-based. As to conditions: for Emax: read-out: CRF1R Emax; for EC50: CRF1R EC50. An outline of the steps: as §1

`CC[C@H](C)[C@H](NC(=O)[C@H](CCCNC(=N)N)NC(=O)[C@H](C)NC(=O)[C@H](CC(N)=O)NC(=O)[C@@H](NC(=O)[C@@H](NC(=O)[C@H](C)NC(=O)[C@H](CCC(N)=O)NC(=O)[C@H](CCC(N)=O)NC(=O)[C@H](CCCCN)NC(=O)[C@H](CCC(=O)O)NC(=O)[C@H](CCCCN)NC(=O)[C@H](CCC(=O)O)NC(=O)[C@H](CCC(N)=O)NC(=O)[C@H](CCCCN)NC(=O)[C@H](CCC(=O)O)NC(=O)[C@@H](NC(=O)[C@H](CCC(=O)O)NC(=O)[C@@H](NC(=O)[C@H](CCSC)NC(=O)[C@H](CCCCN)NC(=O)[C@H](CCCNC(=N)N)NC(=O)[C@H](CC(C)C)NC(=O)[C@H](CC(C)C)NC(=O)[C@H](CCC(N)=O)NC(=O)[C@@H](NC(=O)[C@@H]1CCCN1C(=O)[C@H](CC(C)C)NC(=O)[C@H](CC(=O)O)NC(=O)[C@@H](NC(=O)[C@H](CO)NC(=O)[C@@H](NC(=O)[C@@H]1CCCN1C(=O)[C@@H]1CCCN1C(=O)CNC(=O)[C@@H]1CCC(=O)N1)[C@@H](C)CC)[C@@H](C)CC)[C@@H](C)CC)[C@@H](C)CC)[C@@H](C)CC)[C@@H](C)O)[C@@H](C)O)C(=O)N[C@@H](CC(C)C)C(=O)N[C@@H](C)C(=O)N[C@@H](CCCNC(=N)N)C(=O)N[C@H](C(N)=O)C(C)C` [compound 150]: the maximal effect (Emax) (in general, the maximal effect, on the per cent scale that the assay sets) on CRF2R worked out at 70.5%; on CRF1R, 5.7%.

As for `CC[C@H](C)[C@H](NC(=O)[C@@H](NC(=O)[C@H](CC(=O)O)NC(=O)[C@H](CC(C)C)NC(=O)[C@H](CC(C)C)NC(=O)[C@H](CC(C)C)NC(=O)[C@H](CCCNC(=N)N)NC(=O)[C@H](CC(N)=O)NC(=O)[C@H](CC(N)=O)NC(=O)[C@H](C)NC(=O)[C@H](C)NC(=O)[C@H](CCC(N)=O)NC(=O)[C@H](CCC(N)=O)NC(=O)[C@H](CCCCN)NC(=O)[C@H](CCC(=O)O)NC(=O)[C@H](CCCCN)NC(=O)[C@H](CCC(=O)O)NC(=O)[C@H](CCC(N)=O)NC(=O)[C@H](CCCCN)NC(=O)[C@H](CCC(=O)O)NC(=O)[C@@H](NC(=O)[C@H](CCC(=O)O)NC(=O)[C@@H](NC(=O)[C@H](CCSC)NC(=O)[C@H](CCCCN)NC(=O)[C@H](CCCNC(=N)N)NC(=O)[C@H](CC(C)C)NC(=O)[C@H](CC(C)C)NC(=O)[C@H](Cc1c[nH]cn1)NC(=O)[C@@H](NC(=O)[C@@H]1CCCN1C(=O)[C@H](CC(C)C)NC(=O)[C@H](CC(=O)O)NC(=O)[C@@H](NC(=O)[C@H](CO)NC(=O)[C@@H](NC(=O)[C@@H]1CCCN1C(=O)[C@@H]1CCCN1C(=O)CNC(=O)[C@@H]1CCC(=O)N1)[C@@H](C)CC)[C@@H](C)CC)[C@@H](C)O)[C@@H](C)CC)[C@@H](C)CC)[C@@H](C)O)C(N)=O` [compound 74], on CRF2R, the concentration giving a half-maximal response (EC50) (as a rule, the concentration giving half of the maximal effect) worked out at 55 nM and the maximal response (Emax) worked out at 100%. For the same compound, on CRF1R, the EC50 was greater than 100 nM and the Emax turned out to be 7%.

Turning to `CC[C@H](C)[C@H](NC(=O)[C@H](CCC(=O)O)NC(=O)[C@@H](NC(=O)[C@H](CCSC)NC(=O)[C@H](CCCCN)NC(=O)[C@H](CCCNC(=N)N)NC(=O)[C@H](CC(C)C)NC(=O)[C@H](CC(C)C)NC(=O)[C@H](Cc1ccc(O)cc1)NC(=O)[C@H](CC(C)C)NC(=O)[C@@H]1CCCN1C(=O)[C@H](CC(C)C)NC(=O)[C@H](CC(=O)O)NC(=O)[C@@H](NC(=O)[C@H](CO)NC(=O)[C@@H](NC(=O)[C@@H]1CCCN1C(=O)[C@@H]1CCCN1C(=O)CNC(=O)[C@@H]1CCC(=O)N1)[C@@H](C)CC)[C@@H](C)CC)[C@@H](C)CC)C(=O)N[C@@H](CCC(=O)O)C(=O)N[C@@H](CCCCN)C(=O)N[C@@H](CCC(N)=O)C(=O)N[C@@H](CCC(=O)O)C(=O)N[C@@H](CCCCN)C(=O)N[C@@H](CCC(=O)O)C(=O)N[C@@H](CCCCN)C(=O)N[C@@H](CCC(N)=O)C(=O)N[C@@H](CCC(N)=O)C(=O)N[C@@H](C)C(=O)N[C@H](C(=O)N[C@H](C(=O)N[C@@H](CC(N)=O)C(=O)N[C@@H](C)C(=O)N[C@@H](CCCNC(=N)N)C(=O)N[C@@H](CC(C)C)C(=O)N[C@@H](CC(C)C)C(=O)N[C@@H](CC(=O)O)C(=O)N[C@H](C(=O)N[C@H](C(N)=O)C(C)C)[C@@H](C)O)[C@@H](C)O)[C@@H](C)O` [compound 242], the Emax is 94% at CRF2R and 99% on CRF1R.

On to `CC[C@H](C)[C@H](NC(=O)[C@@H](NC(=O)[C@H](CC(=O)O)NC(=O)[C@H](CC(C)C)NC(=O)[C@H](CC(C)C)NC(=O)[C@H](CCCNC(=N)N)NC(=O)[C@H](C)NC(=O)[C@H](CC(N)=O)NC(=O)[C@H](CC(N)=O)NC(=O)[C@H](C)NC(=O)[C@H](C)NC(=O)[C@H](CCC(N)=O)NC(=O)[C@H](CCC(N)=O)NC(=O)[C@H](CCCCN)NC(=O)[C@H](CCC(=O)O)NC(=O)[C@H](CCCCN)NC(=O)[C@H](CCC(=O)O)NC(=O)[C@H](CCC(N)=O)NC(=O)[C@H](CCCCN)NC(=O)[C@H](CCC(=O)O)NC(=O)[C@@H](NC(=O)[C@H](CCC(=O)O)NC(=O)[C@@H](NC(=O)[C@@H](NC(=O)[C@H](CCCCN)NC(=O)[C@H](CCCNC(=N)N)NC(=O)[C@H](CC(C)C)NC(=O)[C@H](CC(C)C)NC(=O)[C@H](CCC(N)=O)NC(=O)[C@H](Cc1ccccc1)NC(=O)[C@@H]1CCCN1C(=O)[C@@H](NC(=O)[C@H](CC(=O)O)NC(=O)[C@@H](NC(=O)[C@H](CO)NC(=O)[C@@H](NC(=O)[C@@H]1CCCN1C(=O)[C@@H]1CCCN1C(=O)CNC(=O)[C@@H]1CCC(=O)N1)[C@@H](C)CC)[C@@H](C)CC)C(C)C)C(C)C)[C@@H](C)CC)[C@@H](C)CC)[C@@H](C)O)C(N)=O` [compound 382], for which the figures for the Emax on CRF2R and on CRF1R were 100% and 8%, respectively.

Turning to `CC[C@H](C)[C@H](NC(=O)[C@@H](NC(=O)[C@H](CC(=O)O)NC(=O)[C@H](CC(C)C)NC(=O)[C@H](CC(C)C)NC(=O)[C@H](CC(C)C)NC(=O)[C@H](C)NC(=O)[C@H](CC(N)=O)NC(=O)[C@H](CC(N)=O)NC(=O)[C@H](C)NC(=O)[C@H](C)NC(=O)[C@H](CCC(N)=O)NC(=O)[C@H](CCC(N)=O)NC(=O)[C@H](CCCCN)NC(=O)[C@H](CCC(=O)O)NC(=O)[C@H](CCCCN)NC(=O)[C@H](CCC(=O)O)NC(=O)[C@H](CCC(N)=O)NC(=O)[C@H](CCCCN)NC(=O)[C@H](CCC(=O)O)NC(=O)[C@@H](NC(=O)[C@H](CCC(=O)O)NC(=O)[C@@H](NC(=O)[C@H](CCSC)NC(=O)[C@H](CCCCN)NC(=O)[C@H](CCCNC(=N)N)NC(=O)[C@H](CC(C)C)NC(=O)[C@H](CC(C)C)NC(=O)[C@H](CCC(=O)O)NC(=O)[C@H](CC(C)C)NC(=O)[C@@H]1CCCN1C(=O)[C@H](CC(C)C)NC(=O)[C@H](CC(=O)O)NC(=O)[C@@H](NC(=O)[C@H](CO)NC(=O)[C@@H](NC(=O)[C@@H]1CCCN1C(=O)[C@@H]1CCCN1C(=O)CNC(=O)[C@@H]1CCC(=O)N1)[C@@H](C)CC)[C@@H](C)CC)[C@@H](C)CC)[C@@H](C)CC)[C@@H](C)O)C(N)=O` [compound 235], on CRF2R, the EC50 is 25.7 nM and the maximal response (Emax) was 100%. Moreover, at CRF1R, a half-maximal response (EC50) required 806 nM and the Emax stood at 70%.

For `CC[C@H](C)[C@H](NC(=O)[C@H](CCCNC(=N)N)NC(=O)[C@H](C)NC(=O)[C@H](CC(C)C)NC(=O)[C@H](CC(C)C)NC(=O)[C@H](CCCNC(=N)N)NC(=O)[C@H](C)NC(=O)[C@H](CC(N)=O)NC(=O)[C@H](CC(N)=O)NC(=O)[C@H](C)NC(=O)[C@H](C)NC(=O)[C@H](CCC(N)=O)NC(=O)[C@H](CCC(N)=O)NC(=O)[C@H](CCCCN)NC(=O)[C@H](CCC(=O)O)NC(=O)[C@H](CCCCN)NC(=O)[C@H](CCC(=O)O)NC(=O)[C@H](CCC(N)=O)NC(=O)[C@H](CCCCN)NC(=O)[C@H](CCC(=O)O)NC(=O)[C@@H](NC(=O)[C@H](CCC(=O)O)NC(=O)[C@@H](NC(=O)[C@@H](NC(=O)[C@H](CCCCN)NC(=O)[C@H](CCCNC(=N)N)NC(=O)[C@H](CC(C)C)NC(=O)[C@H](CC(C)C)NC(=O)[C@H](Cc1ccccc1)NC(=O)[C@@H](NC(=O)[C@@H]1CCCN1C(=O)[C@H](CC(C)C)NC(=O)[C@H](CC(=O)O)NC(=O)[C@@H](NC(=O)[C@H](CO)NC(=O)[C@@H](NC(=O)[C@@H]1CCCN1C(=O)[C@@H]1CCCN1C(=O)CNC(=O)[C@@H]1CCC(=O)N1)[C@@H](C)CC)[C@@H](C)CC)[C@@H](C)CC)C(C)C)[C@@H](C)CC)[C@@H](C)CC)C(N)=O` [compound 281], the Emax came out at 78.8% at CRF2R and 12.2% on CRF1R.
